In US7504407B2, “Compounds specific to adenosine A1 and A3 receptors and uses thereof” (OSI Pharmaceuticals, Inc., priority 2001, dated 2009) one finds IC50 data, which are given here for one compound.

The chains behind the UniProt entries cited, without tags or fusion partners.
UniProt P0DMS8, whole entry: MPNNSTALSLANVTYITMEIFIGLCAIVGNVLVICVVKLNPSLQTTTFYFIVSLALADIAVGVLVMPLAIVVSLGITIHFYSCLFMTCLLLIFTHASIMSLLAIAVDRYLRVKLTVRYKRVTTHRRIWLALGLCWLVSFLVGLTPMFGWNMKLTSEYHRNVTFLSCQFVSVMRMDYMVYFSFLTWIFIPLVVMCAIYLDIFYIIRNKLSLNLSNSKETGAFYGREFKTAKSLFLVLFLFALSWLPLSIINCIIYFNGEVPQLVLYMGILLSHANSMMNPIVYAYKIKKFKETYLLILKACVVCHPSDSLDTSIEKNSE

The test has as its target human A3 receptor (Homo sapiens, UniProt P0DMS8). Description: Displacement binding of [3H]CPX, yeast membranes expressing hA3R.

For the compound `CC(Cc1ccccc1)Nc1ncnc2c1ncn2C1OC(CO)C(O)C1O` (single isomer, unassigned; (-)), the IC50 came out at 23.6 nM.

In general, IC50 refers to the midpoint of a concentration-inhibition curve. The low end stands for inhibition by little substance, the high end for a need for much substance.
